pIC50: −log10 of the molar value.

Amino acid sequences for entries named in this document (tags omitted). A change or cut given only in a name is not applied to a line headed by its entry.
UniProt P49759: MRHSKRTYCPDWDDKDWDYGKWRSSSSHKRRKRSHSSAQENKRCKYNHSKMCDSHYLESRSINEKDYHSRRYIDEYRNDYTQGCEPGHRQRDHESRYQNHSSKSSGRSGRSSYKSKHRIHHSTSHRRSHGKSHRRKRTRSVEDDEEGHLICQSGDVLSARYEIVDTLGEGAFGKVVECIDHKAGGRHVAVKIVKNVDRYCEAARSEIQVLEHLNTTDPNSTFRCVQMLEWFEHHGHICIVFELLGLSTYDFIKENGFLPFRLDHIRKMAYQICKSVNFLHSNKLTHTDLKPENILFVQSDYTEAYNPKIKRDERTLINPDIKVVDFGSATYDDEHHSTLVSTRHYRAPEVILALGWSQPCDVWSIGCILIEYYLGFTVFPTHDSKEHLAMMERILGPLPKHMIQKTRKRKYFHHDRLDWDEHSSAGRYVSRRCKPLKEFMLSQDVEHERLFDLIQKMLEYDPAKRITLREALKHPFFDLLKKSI

The source of these data is ChEMBL document CHEMBL4007420, “Structural Optimization and Pharmacological Evaluation of Inhibitors Targeting Dual-Specificity Tyrosine Phosphorylation-Regulated Kinases (DYRK) and CDC-like kinases (CLK) in Glioblastoma” (J Med Chem, 2017).

For the experiment, the target named is Dual specificity protein kinase CLK1 (Homo sapiens, UniProt P49759).

For the compound `O=C1NC(Nc2ccccc2)=N/C1=C\c1ccc2c(c1)OCO2`, the pIC50 is 7.15.
